Reference: PMC10352325, “Nitro-benzylideneoxymorphone, a bifunctional mu and delta opioid receptor ligand with high mu opioid receptor efficacy” (Frontiers in Pharmacology, 2023)

The chains behind the UniProt entries cited, without tags or fusion partners. Where a name states a change or a piece, a line headed by the entry shows the natural chain unless it says otherwise.
UniProt P41143, whole entry: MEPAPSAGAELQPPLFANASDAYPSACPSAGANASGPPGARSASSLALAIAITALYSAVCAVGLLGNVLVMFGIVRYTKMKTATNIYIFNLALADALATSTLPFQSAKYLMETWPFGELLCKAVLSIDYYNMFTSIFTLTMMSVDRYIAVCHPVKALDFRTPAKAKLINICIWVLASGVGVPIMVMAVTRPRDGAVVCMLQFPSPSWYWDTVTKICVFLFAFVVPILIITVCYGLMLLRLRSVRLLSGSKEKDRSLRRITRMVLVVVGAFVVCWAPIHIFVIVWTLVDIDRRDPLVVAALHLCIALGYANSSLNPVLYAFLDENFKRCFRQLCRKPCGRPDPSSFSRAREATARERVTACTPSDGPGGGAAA
UniProt P35372, whole entry: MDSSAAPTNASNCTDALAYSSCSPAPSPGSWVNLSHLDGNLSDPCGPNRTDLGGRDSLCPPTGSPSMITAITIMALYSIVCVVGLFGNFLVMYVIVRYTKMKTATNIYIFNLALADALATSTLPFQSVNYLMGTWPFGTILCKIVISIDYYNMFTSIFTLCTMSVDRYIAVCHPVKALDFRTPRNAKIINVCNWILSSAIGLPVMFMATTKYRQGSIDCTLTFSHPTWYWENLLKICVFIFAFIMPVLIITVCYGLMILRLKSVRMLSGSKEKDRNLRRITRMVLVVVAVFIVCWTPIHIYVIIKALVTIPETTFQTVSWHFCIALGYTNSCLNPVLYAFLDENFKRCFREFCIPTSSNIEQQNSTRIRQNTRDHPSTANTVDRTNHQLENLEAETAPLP
UniProt P41145: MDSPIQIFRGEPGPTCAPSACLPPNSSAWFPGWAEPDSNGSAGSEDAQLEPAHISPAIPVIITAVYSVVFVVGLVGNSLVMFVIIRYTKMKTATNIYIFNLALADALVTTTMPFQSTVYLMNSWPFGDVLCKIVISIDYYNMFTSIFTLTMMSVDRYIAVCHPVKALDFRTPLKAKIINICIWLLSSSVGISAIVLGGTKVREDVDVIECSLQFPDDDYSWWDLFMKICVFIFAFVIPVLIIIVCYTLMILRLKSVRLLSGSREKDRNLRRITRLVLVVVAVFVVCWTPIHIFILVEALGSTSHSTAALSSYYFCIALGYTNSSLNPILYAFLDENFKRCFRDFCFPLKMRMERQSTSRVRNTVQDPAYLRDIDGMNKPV

How the values were obtained:
DOPr = target: T1, DOPr (Homo sapiens, UniProt P41143); test: biochemical; conditions: read-out: DOPr Emax ±SEM
T1 construct: host or cells: CHO

MOPr = MOPr (Homo sapiens, UniProt P35372); conditions: cited from earlier work
KOPr [1] = target: T2, KOPr (Homo sapiens, UniProt P41145); conditions: read-out: KOPr EC50 ± SEM; cited from earlier work
KOPr [2] = target: T2, KOPr; design: host or cells: CHO; conditions: read-out: Ki (±SEM, nM) KOPr; cited from earlier work

Row | Compound | Emax (DOPr) | MOPr Emax ±SEM (MOPr) | EC50 (KOPr [1]) | Ki (KOPr [2])
1 | CC(C)[C@H](NC(=O)[C@H](CCC(=O)O)NC(=O)[C@H](Cc1ccccc1)NC(=O)[C@@H](C)NC(=O)[C@@H](N)Cc1ccc(O)cc1)C(=O)N[C@H](C(=O)NCC(N)=O)C(C)C [Deltorphin-II, reference compound] | 100% | – | – | –
2 | COc1ccc2c3c1O[C@H]1C(=O)CC[C@@]4(O)[C@@H](C2)N(C)CC[C@]314 [oxycodone] | – | 98 ± 6% | > 2000 nM | > 2000 nM
